Assay results taken from patent publication US11186582B2, “Substituted [1,2,4]triazolo[1,5-a]pyrimidin-7-yl compounds as PDE2 inhibitors” (DART NEUROSCIENCE (CAYMAN) LTD., priority 2014, dated 2021).

Chains of the proteins cited; added tags and fusions are not shown. Residues count along the entry.
UniProt O00408, 2-941: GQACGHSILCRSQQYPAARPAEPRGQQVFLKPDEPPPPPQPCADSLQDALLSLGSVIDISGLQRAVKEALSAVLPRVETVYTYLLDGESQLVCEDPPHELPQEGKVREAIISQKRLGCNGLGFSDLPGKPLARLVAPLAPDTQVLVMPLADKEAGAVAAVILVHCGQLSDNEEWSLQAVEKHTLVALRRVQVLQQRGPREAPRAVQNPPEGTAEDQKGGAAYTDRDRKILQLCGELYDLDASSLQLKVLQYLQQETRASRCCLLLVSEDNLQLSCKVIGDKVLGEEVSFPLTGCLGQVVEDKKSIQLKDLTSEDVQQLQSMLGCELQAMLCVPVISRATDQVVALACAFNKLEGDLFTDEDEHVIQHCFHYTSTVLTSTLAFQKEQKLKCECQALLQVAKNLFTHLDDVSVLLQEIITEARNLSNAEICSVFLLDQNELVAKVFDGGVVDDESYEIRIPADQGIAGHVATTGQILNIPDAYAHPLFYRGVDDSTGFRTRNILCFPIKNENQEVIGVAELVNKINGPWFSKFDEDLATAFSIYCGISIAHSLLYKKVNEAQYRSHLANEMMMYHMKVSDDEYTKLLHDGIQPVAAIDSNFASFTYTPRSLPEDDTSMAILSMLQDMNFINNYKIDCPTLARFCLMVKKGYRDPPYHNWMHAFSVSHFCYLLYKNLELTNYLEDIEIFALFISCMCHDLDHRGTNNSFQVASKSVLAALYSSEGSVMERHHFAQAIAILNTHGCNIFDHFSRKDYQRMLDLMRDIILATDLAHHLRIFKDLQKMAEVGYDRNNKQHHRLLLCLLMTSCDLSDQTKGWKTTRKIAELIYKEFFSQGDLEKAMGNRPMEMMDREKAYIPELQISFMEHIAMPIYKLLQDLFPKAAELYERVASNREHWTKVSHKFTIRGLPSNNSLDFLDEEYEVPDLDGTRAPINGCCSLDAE

Target: FLAG-tagged PDE2A1 (amino acids 2-941) (Homo sapiens (Human), UniProt O00408)
Assay: IMAP TR-FRET PDE2A phosphodiesterase enzymatic assay
Conditions: not given

SMILES	IC50 [nM]
Cc1cc([C@@H]2CN(C(=O)[C@@H]3COc4ccccc4C3)CCO2)n2ncnc2n1 [Example 376, (2S)-4-[(3S)-3,4-Dihydro-2H-1-benzopyran-3-carbonyl]-2-{5-methyl-[1,2,4]triazolo[1,5-a]pyrimidin-7-yl}morpholine]	1000 to 10000
Cc1cc(C2CCCN(C(=O)[C@H]3COc4ccccc4O3)C2)n2ncnc2n1 (stereo partly drawn) [Example 379, 1-[(2R)-2,3-Dihydro-1,4-benzodioxine-2-carbonyl]-3-{5-methyl-[1,2,4]triazolo[1,5-a]pyrimidin-7-yl}piperidine]	100 to 1000
Cc1cc(C2CN(C(=O)c3ccn(-c4ccccc4F)n3)CCO2)n2ncnc2n1 (centres unmarked) [Example 380, 4-[1-(2-Fluorophenyl)-1H-pyrazole-3-carbonyl]-2-{5-methyl-[1,2,4]triazolo[1,5-a]pyrimidin-7-yl}morpholine]	100 to 1000
Cc1cc(C2CN(C(=O)c3ccn(-c4ccccc4Cl)n3)CCO2)n2ncnc2n1 (centres unmarked) [Example 381, 4-[1-(2-Chlorophenyl)-1H-pyrazole-3-carbonyl]-2-{5-methyl-[1,2,4]triazolo[1,5-a]pyrimidin-7-yl}morpholine]	100 to 1000
Cc1cc(C2CN(C(=O)c3cc(C)n(-c4ccc(Cl)cc4)n3)CCO2)n2ncnc2n1 (centres unmarked) [Example 383, 4-[1-(4-Chlorophenyl)-5-methyl-1H-pyrazole-3-carbonyl]-2-{5-methyl-[1,2,4]triazolo[1,5-a]pyrimidin-7-yl}morpholine]	100 to 1000
Cc1ccnc(C(=O)N2CCCC(c3cc(C)nc4ncnn34)C2)c1 (centres unmarked) [Example 385, 4-Methyl-2-[(3-{5-methyl-[1,2,4]triazolo[1,5-a]pyrimidin-7-yl}piperidin-1-yl)carbonyl]pyridine]	100 to 1000
COc1ccc(C(=O)N2CCCC(c3cc(C)nc4ncnn34)C2)cn1 (centres unmarked) [Example 386, 2-Methoxy-5-[(3-{5-methyl-[1,2,4]triazolo[1,5-a]pyrimidin-7-yl}piperidin-1-yl)carbonyl]pyridine]	100 to 1000
Cc1cc(C2CCCN(C(=O)c3cccnc3)C2)n2ncnc2n1 (centres unmarked) [Example 387, 3-[(3-{5-Methyl-[1,2,4]triazolo[1,5-a]pyrimidin-7-yl}piperidin-1-yl)carbonyl]pyridine]	1000 to 10000
Cc1cccc(C(=O)N2CCCC(c3cc(C)nc4ncnn34)C2)n1 (centres unmarked) [Example 391, 2-Methyl-6-[(3-{5-methyl-[1,2,4]triazolo[1,5-a]pyrimidin-7-yl}piperidin-1-yl)carbonyl]pyridine]	> 10000
Cc1cc(C2CCCN(C(=O)c3ccccn3)C2)n2ncnc2n1 (centres unmarked) [Example 395, 2-[(3-{5-Methyl-[1,2,4]triazolo[1,5-a]pyrimidin-7-yl}piperidin-1-yl)carbonyl]pyridine]	> 10000
Cc1cc(C2CCCN(C(=O)c3ncccc3C)C2)n2ncnc2n1 (centres unmarked) [Example 398, 3-Methyl-2-[(3-{5-methyl-[1,2,4]triazolo[1,5-a]pyrimidin-7-yl}piperidin-1-yl)carbonyl]pyridine]	> 10000
Cc1cc(C2CCCN(C(=O)c3nccc4ccccc34)C2)n2ncnc2n1 (centres unmarked) [Example 399, 1-[(3-{5-Methyl-[1,2,4]triazolo[1,5-a]pyrimidin-7-yl}piperidin-1-yl)carbonyl]isoquinoline]	> 10000
Cc1cc(C2CCCN(C(=O)c3cccnc3C)C2)n2ncnc2n1 (centres unmarked) [Example 400, 2-Methyl-3-[(3-{5-methyl-[1,2,4]triazolo[1,5-a]pyrimidin-7-yl}piperidin-1-yl)carbonyl]pyridine]	> 10000
Cc1cc(C2CCCN(C(=O)c3c(C)nc4ccccn34)C2)n2ncnc2n1 (centres unmarked) [Example 404, 3-{5-Methyl-[1,2,4]triazolo[1,5-a]pyrimidin-7-yl}-1-({2-methylimidazo[1,2-a]pyridin-3-yl}carbonyl)piperidine]	> 10000
Cc1cc(C2CCCN(C(=O)c3cn4ccccc4n3)C2)n2ncnc2n1 (centres unmarked) [Example 408, 1-({Imidazo[1,2-a]pyridin-2-yl}carbonyl)-3-{5-methyl-[1,2,4]triazolo[1,5-a]pyrimidin-7-yl}piperidine]	100 to 1000
Cc1cc(C2CCCN(C(=O)c3cccn3C)C2)n2ncnc2n1 (centres unmarked) [Example 409, 1-[(1-Methyl-1H-pyrrol-2-yl)carbonyl]-3-{5-methyl-[1,2,4]triazolo[1,5-a]pyrimidin-7-yl}piperidine]	100 to 1000
COc1ccc(C)cc1C(=O)N1CCCC(c2cc(C)nc3ncnn23)C1 (centres unmarked) [Example 410, 1-[(2-Methoxy-5-methylphenyl)carbonyl]-3-{5-methyl-[1,2,4]triazolo[1,5-a]pyrimidin-7-yl}piperidine]	100 to 1000
Cc1cc(C2CCCN(C(=O)c3cc(C)nn3C)C2)n2ncnc2n1 (centres unmarked) [Example 411, 1-[(1,3-Dimethyl-1H-pyrazol-5-yl)carbonyl]-3-{5-methyl-[1,2,4]triazolo[1,5-a]pyrimidin-7-yl}piperidine]	100 to 1000
Cc1cc(C2CCCN(C(=O)c3cccc(C)c3F)C2)n2ncnc2n1 (centres unmarked) [Example 412, 1-[(2-Fluoro-3-methylphenyl)carbonyl]-3-{5-methyl-[1,2,4]triazolo[1,5-a]pyrimidin-7-yl}piperidine]	100 to 1000
Cc1cc(C2CCCN(C(=O)c3cccc4ccccc34)C2)n2ncnc2n1 (centres unmarked) [Example 413, 3-{5-Methyl-[1,2,4]triazolo[1,5-a]pyrimidin-7-yl}-1-[(naphthalen-1-yl)carbonyl]piperidine]	100 to 1000
COc1ccc(C(=O)N2CCCC(c3cc(C)nc4ncnn34)C2)c(F)c1 (centres unmarked) [Example 415, 1-[(2-Fluoro-4-methoxyphenyl)carbonyl]-3-{5-methyl-[1,2,4]triazolo[1,5-a]pyrimidin-7-yl}piperidine]	100 to 1000
COc1cc(C)ccc1C(=O)N1CCCC(c2cc(C)nc3ncnn23)C1 (centres unmarked) [Example 416, 1-[(2-Methoxy-4-methylphenyl)carbonyl]-3-{5-methyl-[1,2,4]triazolo[1,5-a]pyrimidin-7-yl}piperidine]	100 to 1000
COc1cc(F)cc(C(=O)N2CCCC(c3cc(C)nc4ncnn34)C2)c1 (centres unmarked) [Example 417, 1-[(3-Fluoro-5-methoxyphenyl)carbonyl]-3-{5-methyl-[1,2,4]triazolo[1,5-a]pyrimidin-7-yl}piperidine]	100 to 1000
Cc1ccc(C(=O)N2CCCC(c3cc(C)nc4ncnn34)C2)c(F)c1 (centres unmarked) [Example 418, 1-[(2-Fluoro-4-methylphenyl)carbonyl]-3-{5-methyl-[1,2,4]triazolo[1,5-a]pyrimidin-7-yl}piperidine]	100 to 1000
COc1cccc(C(=O)N2CCCC(c3cc(C)nc4ncnn34)C2)c1C (centres unmarked) [Example 422, 1-[(3-Methoxy-2-methylphenyl)carbonyl]-3-{5-methyl-[1,2,4]triazolo[1,5-a]pyrimidin-7-yl}piperidine]	1000 to 10000

Same assay, conditions: IMAP TR-FRET, 200 nM FAM-cAMP substrate, 11-point half-log dose-response

SMILES	PDE2 (pIC50)
Cc1cc(C2CCCN(C(=O)[C@@H]3COc4ccccc4O3)C2)n2ncnc2n1 (stereo partly drawn) [Example 377, 1-[(2S)-2,3-Dihydro-1,4-benzodioxine-2-carbonyl]-3-{5-methyl-[1,2,4]triazolo[1,5-a]pyrimidin-7-yl}piperidine]	>7
Cc1cc(C2CN(C(=O)c3ccn(-c4cccc(Br)c4)n3)CCO2)n2ncnc2n1 (centres unmarked) [Example 382, 4-[1-(3-Bromophenyl)-1H-pyrazole-3-carbonyl]-2-{5-methyl-[1,2,4]triazolo[1,5-a]pyrimidin-7-yl}morpholine]	>7
Cc1cc(C2CN(C(=O)c3ccn(-c4cccc(F)c4)n3)CCO2)n2ncnc2n1 (centres unmarked) [Example 384, 4-[1-(3-Fluorophenyl)-1H-pyrazole-3-carbonyl]-2-{5-methyl-[1,2,4]triazolo[1,5-a]pyrimidin-7-yl}morpholine]	>7
Cc1cc(C2CCCN(C(=O)c3cc4ccccc4cn3)C2)n2ncnc2n1 (centres unmarked) [Example 389, 3-[(3-{5-Methyl-[1,2,4]triazolo[1,5-a]pyrimidin-7-yl}piperidin-1-yl)carbonyl]isoquinoline]	>7
Cc1cc(C2CCCN(C(=O)c3ccc4cccnc4c3)C2)n2ncnc2n1 (centres unmarked) [Example 396, 7-[(3-{5-Methyl-[1,2,4]triazolo[1,5-a]pyrimidin-7-yl}piperidin-1-yl)carbonyl]quinoline]	>7
Cc1cc(C2CCCN(C(=O)c3ccc4ccncc4c3)C2)n2ncnc2n1 (centres unmarked) [Example 397, 7-[(3-{5-Methyl-[1,2,4]triazolo[1,5-a]pyrimidin-7-yl}piperidin-1-yl)carbonyl]isoquinoline]	>7
Cc1cc(C2CCCN(C(=O)c3ccc4ccccc4n3)C2)n2ncnc2n1 (centres unmarked) [Example 406, 2-[(3-{5-Methyl-[1,2,4]triazolo[1,5-a]pyrimidin-7-yl}piperidin-1-yl)carbonyl]quinoline]	>7
Cc1cc(C2CCCN(C(=O)c3cccc(Cl)c3)C2)n2ncnc2n1 (centres unmarked) [Example 414, 1-[(3-Chlorophenyl)carbonyl]-3-{5-methyl-[1,2,4]triazolo[1,5-a]pyrimidin-7-yl}piperidine]	>7
Cc1cc(C2CCCN(C(=O)c3cnc4ccccc4n3)C2)n2ncnc2n1 (centres unmarked) [Example 419, 2-[(3-{5-Methyl-[1,2,4]triazolo[1,5-a]pyrimidin-7-yl}piperidin-1-yl)carbonyl]quinoxaline]	>7
Cc1cc(C2CCCN(C(=O)c3cn(C)c4ccccc34)C2)n2ncnc2n1 (centres unmarked) [Example 420, 1-Methyl-3-[(3-{5-methyl-[1,2,4]triazolo[1,5-a]pyrimidin-7-yl}piperidin-1-yl)carbonyl]-1H-indole]	>7
Cc1cc(C2CCCN(C(=O)c3ccc4ncsc4c3)C2)n2ncnc2n1 (centres unmarked) [Example 421, 6-[(3-{5-Methyl-[1,2,4]triazolo[1,5-a]pyrimidin-7-yl}piperidin-1-yl)carbonyl]-1,3-benzothiazole]	>7
Cc1cc(C2CCCN(C(=O)c3ccc4occc4c3)C2)n2ncnc2n1 (centres unmarked) [Example 423, 1-[(1-Benzofuran-5-yl)carbonyl]-3-{5-methyl-[1,2,4]triazolo[1,5-a]pyrimidin-7-yl}piperidine]	>7
Cc1cc(C2CCCN(C(=O)c3ccc4c(c3)CCCC4)C2)n2ncnc2n1 (centres unmarked) [Example 424, 3-{5-Methyl-[1,2,4]triazolo[1,5-a]pyrimidin-7-yl}-1-[(5,6,7,8-tetrahydronaphthalen-2-yl)carbonyl]piperidine]	>7
